# Ab-91 heavy chain CDR variants: yeast mating affinities

Binding partner: SARS-CoV-2 spike HR2 peptide, sequence PDVDLGDISGINAS.

Ab-91 is the parent antibody, in scFv form: VL, then the linker GGGGSGGGGSGGGGS, then VH. The light chain is unchanged in all variants.
VL: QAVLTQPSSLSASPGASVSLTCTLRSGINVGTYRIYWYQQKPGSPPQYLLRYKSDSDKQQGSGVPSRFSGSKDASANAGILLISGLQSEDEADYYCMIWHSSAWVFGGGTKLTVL
VH: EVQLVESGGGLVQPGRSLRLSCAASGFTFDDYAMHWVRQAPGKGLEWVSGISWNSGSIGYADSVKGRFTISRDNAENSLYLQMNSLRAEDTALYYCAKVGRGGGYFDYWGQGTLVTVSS

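The parent was found by panning a naive human phage display library on the peptide. In library AAYL51, one, two or three CDR residues were substituted; doubles and triples were drawn at random. AlphaSeq pools MATa yeast showing the antibodies with MATalpha yeast showing the peptide. Mating (16 h, 30 °C) was followed by selection of diploids and sequencing of their barcodes. A regression on co-assayed BCL2-family reference pairs converts the normalised counts of each replicate to an apparent Kd. Mating was done three times.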

Changes read parent residue, position, new residue, counted from the first residue of the VH shown. All variants listed here change V64 of the VH, counted from its first residue. Scale: log10 of Kd in nM, estimated from mating counts; low values are strong binders. The mean shown is taken over the replicates in which the pair was detected. Where no diploid with the target was found in any replicate, the entry reads "no signal": below detection, most likely a poor binder, though not proof of it. The list is sorted by this average, lowest first, undetected variants last. For reference, the parent read 1.86 as the reference entry and 0.88 as a member of this library.

Variant S63R/V64D/F106E gave 1.82 (3 of 3 replicates; controls 1 of 9).
Variant T28W/V64Q gave 2.84 (3 of 3 replicates; controls 0 of 9).
Variant D62Q/V64D/G103T gave 3.69 (1 of 3 replicates; controls 1 of 9).
Variant I58W/V64P/G103E gave 3.75 (1 of 3 replicates; controls 1 of 9).
Variant G26I/N54Y/V64T gave 3.82 (1 of 3 replicates; controls 1 of 9).
Variant A61H/S63C/V64G gave 4.03 (1 of 3 replicates; controls 2 of 9).
Variant V64P/G102K/Y105M gave 4.06 (1 of 3 replicates; controls 6 of 9).
Variant N54F/V64L/G103N gave 4.27 (1 of 3 replicates; controls 5 of 9).
Variant I51N/V64E/K65H gave 4.29 (2 of 3 replicates; controls 2 of 9).
Variant A33D/M34W/V64I gave 4.49 (1 of 3 replicates; controls 2 of 9).
Variant Y32T/V64A/V99P gave 4.56 (1 of 3 replicates; controls 1 of 9).
Variant F27S/S57M/V64S gave 4.61 (1 of 3 replicates; controls 1 of 9).
Variant T28I/A33F/V64I gave 4.87 (1 of 3 replicates; controls 7 of 9).
Variant T28C/V64T/F106G gave 5.21 (3 of 3 replicates; controls 7 of 9).
Variant D31K/A33C/V64S gave 5.31 (1 of 3 replicates; controls 5 of 9).
Variant M34V/S55E/V64G gave 5.33 (2 of 3 replicates; controls 3 of 9).
Variant V64N/D107A gave 5.49 (3 of 3 replicates; controls 3 of 9).
Variant V64Y/G104A/Y105D gave 5.56 (3 of 3 replicates; controls 7 of 9).
Variant G26N/G59V/V64Y gave 5.58 (2 of 3 replicates; controls 4 of 9).
Variant Y32G/M34D/V64P gave 5.64 (3 of 3 replicates; controls 2 of 9).
Variant S57T/V64R gave no signal (0 of 3 replicates; controls 2 of 9).
Variant T28M/V64A/G100F gave no signal (0 of 3 replicates; controls 2 of 9).
Variant Y32G/V64R/Y105N gave no signal (0 of 3 replicates; controls 1 of 9).
Variant V64P/K65G/Y105M gave no signal (0 of 3 replicates; controls 1 of 9).
Variant A61Q/V64L/K65E gave no signal (0 of 3 replicates; controls 0 of 9).
Variant H35Q/V64Y/D107G gave no signal (0 of 3 replicates; controls 0 of 9).
Variant Y32W/V64L/G103K gave no signal (0 of 3 replicates; controls 0 of 9).
Variant S57D/V64C/G103F gave no signal (0 of 3 replicates; controls 0 of 9).
Variant G50Q/V64L/F106R gave no signal (0 of 3 replicates; controls 0 of 9).
Variant M34R/N54H/V64S gave no signal (0 of 3 replicates; controls 1 of 9).
Variant G26E/I51L/V64T gave no signal (0 of 3 replicates; controls 0 of 9).
Variant F27C/D30E/V64A gave no signal (0 of 3 replicates; controls 1 of 9).
Variant A33H/V64R/K65M gave no signal (0 of 3 replicates; controls 0 of 9).
Variant G26C/D30K/V64F gave no signal (0 of 3 replicates; controls 1 of 9).
Variant F29Q/V64S/Y105P gave no signal (0 of 3 replicates; controls 0 of 9).
Variant G59R/A61G/V64L gave no signal (0 of 3 replicates; controls 5 of 9).
Variant Y60I/V64Q/R101H gave no signal (0 of 3 replicates; controls 0 of 9).
Variant D62F/V64T/G102A gave no signal (0 of 3 replicates; controls 0 of 9).
Variant F27W/V64Y/F106Y gave no signal (0 of 3 replicates; controls 1 of 9).
Variant T28A/V64D/D107V gave no signal (0 of 3 replicates; controls 0 of 9).

Background: pairings of library AAYL51 with three empty control strains gave a value in 21% of cases (median 4.54, 5th percentile 3.26). Values in that range, when seen in few replicates, are hard to tell from nonspecific mating. For each scFv, signals with the empty controls are counted beside the result.

Reference: Engelhart et al. 2022, doi:10.1038/s41597-022-01779-4. File: FLAb, binding data.